## Apparent affinities of Ab-95 variants for a coronavirus HR2 peptide

Values reported by Engelhart et al. 2022, doi:10.1038/s41597-022-01779-4 (FLAb copy).

Binding partner: SARS-CoV-2 spike HR2 peptide, sequence PDVDLGDISGINAS.

Parent: Ab-95, a human scFv built as VH, a 15-residue (Gly4Ser)3 linker, VL. Only the CDRs of the light chain vary.
VH: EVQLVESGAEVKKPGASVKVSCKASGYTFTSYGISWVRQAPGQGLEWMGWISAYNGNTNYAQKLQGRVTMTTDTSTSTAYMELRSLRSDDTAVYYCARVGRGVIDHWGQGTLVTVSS
VL: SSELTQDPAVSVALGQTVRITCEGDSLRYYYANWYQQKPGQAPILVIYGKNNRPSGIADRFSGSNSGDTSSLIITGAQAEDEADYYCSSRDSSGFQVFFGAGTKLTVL

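Phage display of a naive human antibody library on the peptide gave the parent. AAYL52 was designed without a model: most single CDR substitutions and a random sample of double and triple ones. In AlphaSeq, yeast of one mating type display the scFv and yeast of the other type display the target. After mating in shaken culture at 30 °C for 16 h, diploids were selected and their barcode pairs sequenced. A regression on co-assayed BCL2-family reference pairs converts the normalised counts of each replicate to an apparent Kd. Each pool was mated in three replicate cultures.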

The parent's light chain CDRs are EGDSLRYYYAN, GKNNRPS, SSRDSSGFQVF; each variant's own CDRs replace them letter for letter. Scale: log10 of Kd in nM, estimated from mating counts; low values are strong binders. The mean shown is taken over the replicates in which the pair was detected. Where no diploid with the target was found in that replicate, the entry reads "ND": below detection, most likely a poor binder, though not proof of it.

CDR-L1,CDR-L2,CDR-L3,"log10 Kd, replicates","mean, log10 nM",signal with controls
DSDSLRYYYAN,GKMNRPS,SSRDSSGFQVF,ND / ND / ND,ND,2 of 9 (3.64)
HGDSLRYYYTN,GKNNRPS,SSRDSSGFSVF,2.86 / 2.37 / 1.63,2.29,3 of 9 (4.18)
EGDSLRYYYNN,GNNNRPS,SSRDSSGFQVF,2.28 / 2.35 / 2.47,2.37,4 of 9 (3.75)
EGDSLRPYYAN,GKNNRPS,SSRDSSGFQVF,2.53 / 2.45 / 2.41,2.46,5 of 9 (3.90)
EVDSLRYYIAN,GKNNRPS,SSRDSSGAQVF,4.16 / 4.37 / ND,4.27,1 of 9 (3.71)
EGDSGRYYYAN,GKNNRPS,SMRDSSLFQVF,4.47 / ND / ND,4.47,2 of 9 (3.55)
EGDSLRYYYAN,GKNNRIS,SSHDSSGFSVF,5.43 / ND / ND,5.43,1 of 9 (4.00)
EGGSTCYYYAN,GKNNRPS,SSRDSSGFQVF,4.11 / 3.39 / ND,3.75,1 of 9 (4.26)
FGASLRYYYAN,GKNNRPS,SSIDSSGFQVF,ND / 4.32 / ND,4.32,0 of 9
EFDSHRYYYEN,GKNNRPS,SSRDSSGFQVF,ND / 5.52 / ND,5.52,2 of 9 (5.09)
EGDSLRYYYAN,GLANRPS,SSRDHSGFQVF,3.93 / 4.72 / ND,4.32,2 of 9 (3.56)
EGDSLRYYYAN,GKNNRPF,SSRDSCGKQVF,3.50 / 2.86 / 3.95,3.44,1 of 9 (3.58)
SGDSLRYYYMN,GKNNRPS,SSRMSSGFQVF,4.12 / 3.17 / 2.70,3.33,4 of 9 (3.67)
EMDSLRYYYAN,GKQNRPS,SSGDSSGFQVF,3.50 / 5.60 / ND,4.55,2 of 9 (3.98)
NGDSLEYYYAY,GKNNRPS,SSRDSSGFQVF,4.29 / ND / 3.54,3.92,1 of 9 (3.94)
EGDSLRYYYAN,GKNNDPS,SKRDTSGFQVF,4.22 / 4.50 / ND,4.36,3 of 9 (3.60)
EGDGLRYYVAN,NKNNRPS,SSRDSSGFQVF,ND / 4.03 / ND,4.03,3 of 9 (3.58)
EGDSLRKYIAN,GKNNRPS,SDRDSSGFQVF,4.31 / 3.19 / ND,3.75,2 of 9 (3.77)
EGDSLRYYYAN,GKNNRPS,SSRDSEGFQVF,2.26 / 2.46 / 2.13,2.28,1 of 9 (4.33)
EGDILRYYYAN,GKANRPS,SSRSSSGFQVF,5.48 / ND / 3.25,4.36,3 of 9 (4.04)
EGDSLRYYYAN,IKNYLPS,SSRDSSGFQVF,3.86 / ND / ND,3.86,2 of 9 (4.18)
EGDSLRYNYAN,GKNNRPS,SSRQHSGFQVF,1.53 / 1.42 / 1.07,1.34,1 of 9 (2.83)
EGDSKRYYYAN,GKNNRPV,SSRDSSGIQVF,ND / ND / ND,ND,4 of 9 (4.31)
ENDSLRYYYAA,GTNNRPS,SSRDSSGFQVF,ND / 3.84 / ND,3.84,2 of 9 (4.17)
HGHSLRYYSAN,GKNNRPS,SSRDSSGFQVF,2.73 / 2.13 / 1.16,2.00,1 of 9 (4.53)
EGDSLRYYYAN,KKNLRPS,SSRDSSGFQVS,5.45 / 3.59 / 4.29,4.44,4 of 9 (4.30)
EGDSLRPYVAN,GKNNRPS,SSRDSQGFQVF,2.92 / 2.69 / ND,2.81,2 of 9 (4.23)
EGDSLRYYYAN,GDCERPS,SSRDSSGFQVF,2.77 / 2.99 / 2.47,2.74,4 of 9 (4.17)
EGDSQRYYYAN,GKNNRPS,SSRDSYKFQVF,ND / 5.19 / 3.44,4.31,1 of 9 (3.24)
EGDSLRYYYAN,GKNNRPS,SSRDNIGFQTF,2.20 / 2.16 / 1.66,2.01,5 of 9 (4.75)
EGDSLRYTYAN,GKNNYPS,SSHDSSGFQVF,3.04 / 3.04 / 2.65,2.91,5 of 9 (4.27)
GGDSLRYYYAN,RKNNAPS,SSRDSSGFQVF,ND / 3.55 / ND,3.55,1 of 9 (2.85)
EGDSLRYYYAN,GCNSRPS,SSRDSSGFLVF,ND / ND / 4.35,4.35,7 of 9 (3.77)
EGLSLRYYYDN,GKNNRPS,SNRDSSGFQVF,ND / 5.52 / ND,5.52,1 of 9 (4.78)
EGDSLRYLYAN,GKNNRPS,SMRDSSGFNVF,1.51 / 1.39 / 0.88,1.26,0 of 9
EGDSLRYYYAN,GPNNRHS,SSVDSSGFQVF,3.48 / ND / 2.46,2.97,2 of 9 (3.93)
EGDSLRYYDAN,GKNERPS,RSRDSSGFQVF,1.18 / 0.97 / 0.53,0.90,1 of 9 (4.08)
EGDSLRPYYAN,HKNNRPS,SSRDSWGFQVF,ND / ND / ND,ND,1 of 9 (3.04)
PGDSLRYYYAS,HKNNRPS,SSRDSSGFQVF,5.16 / 5.38 / ND,5.27,1 of 9 (3.54)
EFDSLRYYYAN,GYNNRPS,SSRPSSGFQVF,3.93 / 2.97 / ND,3.45,2 of 9 (4.23)
EGDSLRYYIAN,GKNNCPS,SSRDSSGFQVF,3.67 / ND / 4.73,4.20,2 of 9 (4.14)
EGDSLLYYYAN,GKNNRPS,SSRDSSGFSVF,2.76 / 2.19 / 2.20,2.38,5 of 9 (4.12)

A selection of 5 entries from above:

CDR-L1,CDR-L2,CDR-L3,"log10 Kd, replicates","mean, log10 nM",signal with controls
NGDSLEYYYAY,GKNNRPS,SSRDSSGFQVF,4.29 / ND / 3.54,3.92,1 of 9 (3.94)
EGDSLRYYDAN,GKNERPS,RSRDSSGFQVF,1.18 / 0.97 / 0.53,0.90,1 of 9 (4.08)
EGDSLRYYIAN,GKNNCPS,SSRDSSGFQVF,3.67 / ND / 4.73,4.20,2 of 9 (4.14)
EGDGLRYYVAN,NKNNRPS,SSRDSSGFQVF,ND / 4.03 / ND,4.03,3 of 9 (3.58)
EGGSTCYYYAN,GKNNRPS,SSRDSSGFQVF,4.11 / 3.39 / ND,3.75,1 of 9 (4.26)

In this assay the parent's reference entry averaged 2.31; its copy inside this library read 2.25. As a blank, each scFv also met three strains without target: over library AAYL52, 28% of these pairings were detected, typically at 3.91 and seldom below 2.90. Also given: how often the same scFv was detected with the empty control strains, with their mean in brackets.